The values that follow are results of earlier work, collected in US20080249317A1, “Novel amorphous form of carvedilol phosphate and processes for the preparation thereof” (APOTEX INC., priority 2007, published 2008).

The conditions of this data set: as taught in WO 2004/002419, US 2005/0169994 and US 2006/0182804; cited from earlier work.

With “carvedilol phosphate [crystalline carvedilol phosphate]”, the solubility characteristics entry was “purportedly superior”.
